Measured values from ChEMBL document CHEMBL6078678, “Unveiling the Antimycobacterial Potential of Novel 4-Alkoxyquinolines: Insights into Selectivity, Mechanism of Action, and In Vivo Exposure” (J Med Chem, 2024).
Values after ≈ are worked out from the molar mass of the structure shown.

Tests used:
[1] = Aqueous solubility of compound in PBS at pH 7.4 incubated for 4 hrs by UHPLC-DAD analysis; assay type: physicochemical
[2] = Aqueous solubility of compound in NH4HCO3 at pH 9.1 incubated for 4 hrs by UHPLC-DAD analysis; assay type: physicochemical; conditions: NH4HCO3, pH 9.1

Which solubility at 4 h [1] does the source give for COc1ccc2nc(C)cc(OCCCNc3ccc(I)cc3)c2c1 here?
Its solubility at 4 h is 2.9 µM (≈ 1.3 µg/mL).

What about the solubility at 4 h [2] of the same compound?
The solubility at 4 h was 2.49 µM (≈ 1.12 µg/mL).

With COc1ccc2nc(C)cc(OCCCNc3ccc(Br)cc3)c2c1 as the compound, how does the solubility at 4 h [2] read?
Its solubility at 4 h is 21 µM (≈ 8.44 µg/mL).

For CCc1ccc(NCCCOc2cc(C)nc3ccc(OC)cc23)cc1, which solubility at 4 h [2] is on record?
The solubility at 4 h was 61.4 µM (≈ 21.5 µg/mL).
